Details in all cases: displacement of 0.050 nM [125I]PYY (porcine), 2 h room temperature
The target in assay [1] is T1, NPY5ΔY1CT chimeric receptor (Homo sapiens, UniProt P25929+Q15761).
T1 construct: made in house; host or cells: Sf9 insect cells infected with recombinant baculovirus (pBacPAK9 vector); purified membranes
Kind of assay: [125I]PYY competition binding, Sf9 membranes expressing NPY5ΔY1CT.

The chains behind the UniProt entries cited, without tags or fusion partners. Where a name states a change or a piece, a line headed by the entry shows the natural chain unless it says otherwise.
UniProt P25929: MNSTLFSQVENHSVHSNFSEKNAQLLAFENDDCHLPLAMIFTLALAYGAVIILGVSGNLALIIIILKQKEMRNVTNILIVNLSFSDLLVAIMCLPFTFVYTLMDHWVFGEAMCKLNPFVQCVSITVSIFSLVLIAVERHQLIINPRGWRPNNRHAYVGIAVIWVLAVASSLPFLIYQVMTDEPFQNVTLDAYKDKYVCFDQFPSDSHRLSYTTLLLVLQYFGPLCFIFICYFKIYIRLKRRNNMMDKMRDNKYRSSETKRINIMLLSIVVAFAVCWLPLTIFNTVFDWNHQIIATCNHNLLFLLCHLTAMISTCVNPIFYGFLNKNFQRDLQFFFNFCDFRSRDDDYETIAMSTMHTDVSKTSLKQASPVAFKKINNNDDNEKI
UniProt Q15761: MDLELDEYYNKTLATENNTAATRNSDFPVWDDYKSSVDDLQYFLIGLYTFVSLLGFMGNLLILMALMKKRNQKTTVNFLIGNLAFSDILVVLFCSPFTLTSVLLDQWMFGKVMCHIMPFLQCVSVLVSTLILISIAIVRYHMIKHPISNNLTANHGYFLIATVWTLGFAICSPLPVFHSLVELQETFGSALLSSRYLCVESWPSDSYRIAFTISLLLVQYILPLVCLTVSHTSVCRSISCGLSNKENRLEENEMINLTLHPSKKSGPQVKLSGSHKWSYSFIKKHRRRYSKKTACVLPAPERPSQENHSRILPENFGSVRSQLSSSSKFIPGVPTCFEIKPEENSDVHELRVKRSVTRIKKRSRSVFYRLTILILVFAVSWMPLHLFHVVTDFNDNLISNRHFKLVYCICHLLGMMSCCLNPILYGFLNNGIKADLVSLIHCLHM

The target in another assay is T2, NPY5 receptor (Homo sapiens, UniProt Q15761).
T2 construct: made in house; host or cells: Sf9 insect cells infected with recombinant baculovirus; purified membranes
T2 sequence (Q15761 with tags, fused parts or gaps): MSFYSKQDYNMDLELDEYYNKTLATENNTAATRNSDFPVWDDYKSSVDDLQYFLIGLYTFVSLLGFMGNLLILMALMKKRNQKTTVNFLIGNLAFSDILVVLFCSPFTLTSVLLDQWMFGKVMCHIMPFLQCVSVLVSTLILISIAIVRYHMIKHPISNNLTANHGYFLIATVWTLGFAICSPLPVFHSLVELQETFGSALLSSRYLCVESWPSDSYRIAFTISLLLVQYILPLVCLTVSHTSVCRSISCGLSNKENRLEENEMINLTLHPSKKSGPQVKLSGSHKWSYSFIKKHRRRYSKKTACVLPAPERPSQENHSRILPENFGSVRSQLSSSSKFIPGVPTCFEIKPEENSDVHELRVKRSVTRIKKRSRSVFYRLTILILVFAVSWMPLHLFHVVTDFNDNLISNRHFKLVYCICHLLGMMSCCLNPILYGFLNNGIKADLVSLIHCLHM
As to the kind of experiment: [125I]PYY competition binding, Sf9 membranes expressing NPY5.

In assay [2] the target is T3, NPY5ΔY1IC3 chimeric receptor (Homo sapiens, UniProt Q15761, DEL238-360/INS235IRLKRRNNMMDKMRDNKY/K361S).
T3 construct: made in house; host or cells: Sf9 insect cells infected with recombinant baculovirus (pBacPAK9 vector); purified membranes
T3 sequence (Q15761 with tags, fused parts or gaps INS235IRLKRRNNMMDKMRDNKY/DEL238-360/K361S): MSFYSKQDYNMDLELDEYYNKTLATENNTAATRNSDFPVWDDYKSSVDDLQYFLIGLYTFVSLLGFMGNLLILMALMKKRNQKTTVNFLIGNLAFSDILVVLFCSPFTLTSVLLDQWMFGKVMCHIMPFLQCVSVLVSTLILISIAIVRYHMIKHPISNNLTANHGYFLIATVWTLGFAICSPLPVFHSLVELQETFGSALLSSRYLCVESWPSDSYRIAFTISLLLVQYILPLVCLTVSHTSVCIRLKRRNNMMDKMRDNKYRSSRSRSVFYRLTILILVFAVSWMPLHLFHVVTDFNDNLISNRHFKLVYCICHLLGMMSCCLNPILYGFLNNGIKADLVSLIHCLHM
Kind of assay: [125I]PYY competition binding, Sf9 membranes expressing NPY5ΔY1IC3.

This passage reports Ki results from patent publication US20050019869A1, “Chimeric neuropeptide Y receptors” (priority 2000, published 2005).

human D-Trp 32 NPY: the Ki in assay [1] stood at 15.6 nM; on NPY5 receptor, 8 nM; in assay [2], 2.3 nM.
In the same order, the values of human NPY 1-36 [HNPY 1-36] are 0.4 nM, 0.44 nM and 0.57 nM.
On the same counts, the results for human NPY 3-36 [HNPY 3-36] are 1.9 nM, 2.1 nM and 1.2 nM.
In the same order, the values of human NPY 13-36 [HNPY 13-36] are 23.4 nM, 20 nM and 10.3 nM.
